Data reported in patent US11572399B2, “Long-acting GIP peptide analogues” (University of Copenhagen, priority 2017, dated 2023).

Key:
[1] = biological target: T1, human GIP receptor (Homo sapiens, UniProt P48546); test: 125I-human GIP competition binding assay, in the presence and absence of 2% HSA; details: fold decrease in affinity compared to GIP(3-30)NH2; Table 3b;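 further: nonspecific binding taken as radioligand bound to untransfected cells, IC50 obtained from nonlinear regression fits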
T1 construct: host or cells: COS-7, transient transfection (calcium phosphate), cDNA in pCMV-Script
T1 sequence (P48546 22-466): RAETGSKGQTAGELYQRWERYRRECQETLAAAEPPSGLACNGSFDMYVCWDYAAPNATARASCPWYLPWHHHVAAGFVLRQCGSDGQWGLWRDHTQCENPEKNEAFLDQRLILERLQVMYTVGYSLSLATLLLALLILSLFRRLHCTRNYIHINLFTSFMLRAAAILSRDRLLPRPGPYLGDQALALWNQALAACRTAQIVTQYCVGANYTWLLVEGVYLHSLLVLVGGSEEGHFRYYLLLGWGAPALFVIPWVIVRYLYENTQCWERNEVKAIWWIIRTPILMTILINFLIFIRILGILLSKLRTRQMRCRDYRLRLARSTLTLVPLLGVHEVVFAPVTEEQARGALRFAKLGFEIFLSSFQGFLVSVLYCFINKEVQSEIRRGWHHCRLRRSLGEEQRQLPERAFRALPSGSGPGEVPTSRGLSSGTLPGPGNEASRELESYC

[2] = biological target: T1, human GIP receptor; test: cAMP accumulation assay, antagonism of a GIP-mediated cAMP response (50-80% of max); type: cell-based; details: fold vs GIP(3-30)NH2; Table 3b
Method: The day after, the cells were washed twice with Hepes buffered saline (HBS) buffer and incubated with HBS and 1 mM 3-isobutyl-1-methylxanthine (IBMX) for 30 min at 37° C. […] The HitHunter™ cAMP XS assay (DiscoveRx) was carried out according to the manufacturer's instructions.

Q: With `CCCCCCCCCCCCCCCC(=O)NCCCC[C@H](NC(=O)[C@H](CC(=O)O)NC(=O)[C@H](CCSC)NC(=O)[C@H](C)NC(=O)[C@@H](NC(=O)[C@H](CO)NC(=O)[C@H](Cc1ccc(O)cc1)NC(=O)[C@H](CC(=O)O)NC(=O)[C@H](CO)NC(=O)[C@@H](NC(=O)[C@H](Cc1ccccc1)NC(=O)[C@@H](NC(=O)CNC(=O)[C@@H]1CCC(=O)N1)[C@@H](C)O)[C@@H](C)CC)[C@@H](C)CC)C(=O)N[C@H](C(=O)N[C@@H](Cc1c[nH]cn1)C(=O)N[C@@H](CCC(N)=O)C(=O)N[C@@H](CCC(N)=O)C(=O)N[C@@H](CC(=O)O)C(=O)N[C@@H](Cc1ccccc1)C(=O)N[C@H](C(=O)N[C@@H](CC(N)=O)C(=O)N[C@@H](Cc1c[nH]c2ccccc12)C(=O)N[C@@H](CC(C)C)C(=O)N[C@@H](CC(C)C)C(=O)N[C@@H](C)C(=O)N[C@@H](CCC(N)=O)C(=O)N[C@@H](CCCCN)C(N)=O)C(C)C)[C@@H](C)CC` [AT109] as the compound, how does the “Binding fold (paired)” value [1] read?
A: 74 fold

Q: What about the “cAMP - antagonisme fold (paired)” value [2] of the same compound?
A: 8.0 fold
